This is an account of results in ChEMBL document CHEMBL4049452 (J Med Chem, 2017).

Protein sequences, listed by entry. Tags and fused reporters are not part of them.
UniProt P43220, whole entry: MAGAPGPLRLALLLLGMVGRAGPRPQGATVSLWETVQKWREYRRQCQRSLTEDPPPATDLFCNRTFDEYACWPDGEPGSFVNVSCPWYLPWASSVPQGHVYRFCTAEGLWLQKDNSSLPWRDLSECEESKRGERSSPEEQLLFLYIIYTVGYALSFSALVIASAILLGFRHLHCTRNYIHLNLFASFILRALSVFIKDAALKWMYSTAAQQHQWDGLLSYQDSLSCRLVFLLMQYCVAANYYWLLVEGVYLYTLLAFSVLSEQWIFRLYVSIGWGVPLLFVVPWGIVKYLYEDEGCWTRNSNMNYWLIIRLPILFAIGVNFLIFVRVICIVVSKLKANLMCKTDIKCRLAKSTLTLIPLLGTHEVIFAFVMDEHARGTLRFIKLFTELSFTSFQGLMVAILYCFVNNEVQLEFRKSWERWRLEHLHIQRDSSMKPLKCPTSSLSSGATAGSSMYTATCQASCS
UniProt P47871, whole entry: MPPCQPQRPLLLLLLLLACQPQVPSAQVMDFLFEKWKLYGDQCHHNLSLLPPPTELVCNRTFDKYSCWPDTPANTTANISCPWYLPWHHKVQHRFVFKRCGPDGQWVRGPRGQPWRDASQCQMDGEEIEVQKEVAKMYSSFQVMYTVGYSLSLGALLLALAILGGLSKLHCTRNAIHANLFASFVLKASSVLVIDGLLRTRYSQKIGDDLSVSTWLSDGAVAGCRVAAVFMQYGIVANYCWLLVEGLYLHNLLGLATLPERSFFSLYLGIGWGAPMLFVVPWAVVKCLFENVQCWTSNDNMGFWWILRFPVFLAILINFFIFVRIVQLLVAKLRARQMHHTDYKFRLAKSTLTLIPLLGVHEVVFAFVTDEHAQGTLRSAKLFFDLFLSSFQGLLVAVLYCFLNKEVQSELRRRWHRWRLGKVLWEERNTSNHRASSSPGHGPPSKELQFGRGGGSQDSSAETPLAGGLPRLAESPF
UniProt Q61606, whole entry: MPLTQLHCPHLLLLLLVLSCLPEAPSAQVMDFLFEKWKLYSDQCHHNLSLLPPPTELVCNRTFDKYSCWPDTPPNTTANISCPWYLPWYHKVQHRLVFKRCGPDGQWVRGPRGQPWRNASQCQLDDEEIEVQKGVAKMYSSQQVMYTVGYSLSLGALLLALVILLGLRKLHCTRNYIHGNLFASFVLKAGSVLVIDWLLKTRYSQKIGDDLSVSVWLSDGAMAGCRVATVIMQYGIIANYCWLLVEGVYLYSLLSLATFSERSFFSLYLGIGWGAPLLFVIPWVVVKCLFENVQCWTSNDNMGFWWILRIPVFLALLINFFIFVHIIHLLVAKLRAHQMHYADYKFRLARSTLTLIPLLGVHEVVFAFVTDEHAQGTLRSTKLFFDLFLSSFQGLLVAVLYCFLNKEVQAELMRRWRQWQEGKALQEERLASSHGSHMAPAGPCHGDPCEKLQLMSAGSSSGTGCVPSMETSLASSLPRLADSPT

Each structure is given as a SMILES string.

Series [1] has as its target T1, Glucagon-like peptide 1 receptor (Mus musculus, UniProt O35659).
T1 sequence (O35659 whole entry): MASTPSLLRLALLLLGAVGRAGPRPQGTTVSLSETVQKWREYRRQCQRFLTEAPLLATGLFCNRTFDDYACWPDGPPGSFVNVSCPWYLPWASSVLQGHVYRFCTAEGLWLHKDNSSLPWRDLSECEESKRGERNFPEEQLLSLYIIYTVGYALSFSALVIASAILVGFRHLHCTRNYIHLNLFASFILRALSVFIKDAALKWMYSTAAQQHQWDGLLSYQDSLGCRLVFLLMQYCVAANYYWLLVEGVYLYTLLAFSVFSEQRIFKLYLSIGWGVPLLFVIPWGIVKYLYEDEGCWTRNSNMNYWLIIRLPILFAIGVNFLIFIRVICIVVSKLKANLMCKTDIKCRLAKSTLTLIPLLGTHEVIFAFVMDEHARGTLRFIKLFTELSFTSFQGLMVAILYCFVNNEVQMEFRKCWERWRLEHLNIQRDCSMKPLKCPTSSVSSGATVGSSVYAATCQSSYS
The series can be described thus: Agonist activity at mouse GLP-1 receptor expressed in HEK293 cells assessed as cAMP accumulation after 30 mins by HTRF assay. The series is classed as functional, cell-based. (In general: Cyclic AMP is a second messenger, typically raised through Gs and lowered through Gi signalling.)

The target in series [2] is Glucagon-like peptide 1 receptor (Homo sapiens, UniProt P43220). The series can be described thus: Agonist activity at human GLP-1 receptor expressed in HEK293 cells assessed as cAMP accumulation after 30 mins by HTRF assay. The series is classed as functional, cell-based.
The target in series [3] is Glucagon receptor (Homo sapiens, UniProt P47871). Put plainly: Agonist activity at human glucagon receptor expressed in HEK293 cells assessed as cAMP accumulation after 30 mins by HTRF assay. Format: functional, cell-based.
Series [4] can be described thus: Cmax in C57/BL6 mouse at 1 mg/kg, sc by LC-MS/MS analysis. Format: ADME, organism-based. To be noted: in vivo. More on the design: dose 1 mg/kg, route subcutaneous. The procedure, abridged: (§1)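 Female C57/Bl6 mice given single 1 mg/kg sc dose; animals sacrificed and blood collected at 0.083, 0.25, 1, 2, 4, 8, 16 and 24 h. Plasma analysed by LC-MS/MS after protein precipitation; parameters from mean plasma concentrations by noncompartmental analysis.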

A short description of series [5]: AUC in C57/BL6 mouse at 1 mg/kg, sc by LC-MS/MS analysis. The series is classed as ADME, organism-based. The settings on record: in vivo. In outline: as §1
Series [6] is described as follows: Tmax in C57/BL6 mouse at 1 mg/kg, sc by LC-MS/MS analysis. The settings on record: in vivo. The series is classed as ADME, organism-based. In outline:
as §1

The target of series [7] is Glucagon receptor (Mus musculus, UniProt Q61606). The series can be described thus: Agonist activity at mouse glucagon receptor expressed in HEK293 cells assessed as cAMP accumulation after 30 mins by HTRF assay. The series is classed as functional, cell-based.
Series [8] deals with Mus musculus. The series can be described thus: Antidiabetic activity in leptin receptor deficient diabetic db/db mouse assessed as reduction of HbAlc level in blood at 50 ug/kg, sc twice daily after 32 days. Format: functional. More on the design: scale not given: the % may be the effect or the level left. In outline:
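Female db/db (BKS.Cg-m +/+ Leprdb/J) mice stratified by baseline blood glucose and HbA1c (n = 8/group), lean littermate controls included. Dosed sc twice daily at 50 μg/kg for 32 days versus vehicle. HbA1c measured in tail blood without anesthesia at end of study; repeated-measures one-way ANOVA with Dunnett's test, mean ± SEM.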

Series [9] relates to Mus musculus. Put plainly: Antiobese activity in diet induced obese C57BL/6N mouse assessed as overall weight change at 50 ug/kg, sc twice daily morning at the begining of the light phase and in the evening prior lights off for 33 days (reference value: 0.2 +/- 0.7%). The series is classed as functional.
In series [10] the test system is Mus musculus. Put plainly: Antiobese activity in diet induced obese C57BL/6N mouse assessed as body fat change at 50 ug/kg, sc twice daily morning at the begining of the light phase and in the evening prior lights off for 33 days by NMR analysis (reference value: 2.5 +/- […]). The series is classed as functional.

In general, EC50 refers to the concentration giving half of the maximal effect. Usually Cmax stands for the maximum level reached in the sampled fluid or tissue. Usually AUC stands for concentration integrated over time. By Tmax is commonly meant the time at which the peak concentration occurs. For `CCCCCCCCCCCCCCCC(=O)N[C@@H](CCC(=O)NCCCC[C@H](NC(=O)[C@H](CCC(N)=O)NC(=O)[C@H](CCCCN)NC(=O)[C@H](CO)NC(=O)[C@H](CC(C)C)NC(=O)[C@H](CC(=O)O)NC(=O)[C@H](CO)NC(=O)[C@@H](NC(=O)[C@H](Cc1ccccc1)NC(=O)[C@@H](NC(=O)CNC(=O)[C@H](CCC(N)=O)NC(=O)[C@@H](CO)NC(=O)[C@@H](N)Cc1c[nH]cn1)[C@@H](C)O)[C@@H](C)O)C(=O)N[C@@H](CC(=O)O)C(=O)N[C@@H](CO)C(=O)N[C@@H](CCCNC(=N)N)C(=O)N[C@@H](CCCNC(=N)N)C(=O)N[C@@H](C)C(=O)N[C@@H](CCC(N)=O)C(=O)N[C@@H](CC(=O)O)C(=O)N[C@@H](Cc1ccccc1)C(=O)N[C@H](C(=O)N[C@@H](CCC(=O)O)C(=O)N[C@@H](Cc1c[nH]c2ccccc12)C(=O)N[C@@H](CC(C)C)C(=O)N[C@@H](CCCCN)C(=O)N[C@@H](CC(N)=O)C(=O)NCC(=O)NCC(=O)N1CCC[C@H]1C(=O)N[C@@H](CO)C(=O)N[C@@H](CO)C(=O)NCC(=O)N[C@@H](C)C(=O)N1CCC[C@H]1C(=O)N1CCC[C@H]1C(=O)N1CCC[C@H]1C(=O)N[C@@H](CO)C(N)=O)[C@@H](C)CC)C(=O)O` [listing 1 of 2 here], the EC50 was 2.3 pM in [1], 3.9 pM in series [2], 0.7 pM in [3] and 0.025 nM in series [7]. Also, the concentration in series [4] peaked (Cmax) at 1930 ng/mL. In addition, the AUC in series [5] was determined as 11000 ng·h/mL. Further, the Tmax in [6] was 1 h.
For the molecule `CCCCCCCCCCCCCCCC(=O)N[C@@H](CCC(=O)NCCCC[C@H](NC(=O)[C@H](CCC(N)=O)NC(=O)[C@H](CCCCN)NC(=O)[C@H](CO)NC(=O)[C@H](CC(C)C)NC(=O)[C@H](CC(=O)O)NC(=O)[C@H](CO)NC(=O)[C@@H](NC(=O)[C@H](Cc1ccccc1)NC(=O)[C@@H](NC(=O)CNC(=O)[C@H](CCC(N)=O)NC(=O)[C@@H](CO)NC(=O)[C@@H](N)Cc1c[nH]cn1)[C@@H](C)O)[C@@H](C)O)C(=O)N[C@@H](CC(=O)O)C(=O)N[C@@H](CO)C(=O)N[C@@H](CCCNC(=N)N)C(=O)N[C@@H](CCCNC(=N)N)C(=O)N[C@@H](C)C(=O)N[C@@H](CCC(N)=O)C(=O)N[C@@H](CC(=O)O)C(=O)N[C@@H](Cc1ccccc1)C(=O)N[C@H](C(=O)N[C@@H](CCC(=O)O)C(=O)N[C@@H](Cc1c[nH]c2ccccc12)C(=O)N[C@@H](CC(C)C)C(=O)N[C@@H](CCCCN)C(=O)N[C@@H](CC(N)=O)C(=O)NCC(=O)NCC(=O)N1CCC[C@H]1C(=O)N[C@@H](CO)C(=O)N[C@@H](CO)C(=O)NCC(=O)N[C@@H](C)C(=O)N1CCC[C@H]1C(=O)N1CCC[C@H]1C(=O)N1CCC[C@H]1C(=O)N[C@@H](CO)C(N)=O)[C@@H](C)CC)C(=O)O` [listing 2 of 2 here], the values for the Activity in series [8], in series [9] and in series [10] were 1.5%, -29.1% and -57.3%, respectively.
